From publication PMC5508335 (Journal of Veterinary Internal Medicine, 2017) come the findings set out here.

The test system of the assay is healthy purpose-bred cats. To be noted: in vivo.

As to `CN1CC[C@]23c4c5ccc(O)c4O[C@H]2C(=O)CC[C@H]3[C@H]1C5` [hydromorphone], the “cats with successful emesis” value is listed as 75%.
